Data published in patent publication US11986779B2, “Recrystallized HI-6 dimethylsulfate” (dated 2024).

Tests used:
[1] = DSC decomposition onset of recrystallized HI-6 DMS; settings: heating rate 10° C. per minute, samples dried under vacuum 12-16 hours, listed as Unprocessed HI-6
[2] = Solubility determination of HI-6 DMS in solvents and antisolvents

NC(=O)c1cc[n+]([CH-]OC[n+]2ccccc2C=NO)cc1
Decomp. (decomposition onset) [1]: 168.87 °C | Maximum Solubility ([2]; in 1,2-Propane Diol): 2.847 % w/w | Maximum Solubility ([2]; in Acetonitrile (antisolvent)): 0.124 % w/w | Maximum Solubility ([2]; in DMF (antisolvent)): 0.1067 % w/w | Maximum Solubility ([2]; in Dimethyoxy ethane (antisolvent)): 0.338 % w/w | Maximum Solubility ([2]; in Ethanol (antisolvent)): 0.056 % w/w | Maximum Solubility ([2]; in Ethylene Glycol): 14.153 % w/w | Maximum Solubility ([2]; in Isopropyl alcohol (antisolvent)): 0.03 % w/w | Maximum Solubility ([2]; in Methanol): 7.577 % w/w | Maximum Solubility ([2]; in Tert-butanol (antisolvent)): 0.257 % w/w | Maximum Solubility ([2]; in Water): 118.35 % w/w | Solubility in glycerol ([2]; in glycerol, no saturation point observed, solution became too viscous): highly soluble
